Data published in PubChem BioAssay AID602296 (Broad Institute, 2012).
This is a selection; strong and weak results do not stand in their true shares. Results filed as inconclusive are left out. The source made the active and inactive calls.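 The calls were made as follows: active = fitted activation curve crossing 40% at a concentration no higher than the sample's top valid tested dose; inconclusive = flat fitted curve at 30% to 70% activation, or poor curve fit; inactive = signal decrease, flat curve within 30%, or the rest.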

experiment: sustained heat shock response element induction – cell-based, mouse, luciferase, cherry-pick, dose, confirmation (AID 602296); settings: NIH3T3-HGL HSF-1 response element luciferase, 48 h; at 26 µM (top of the series);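 also: test compounds applied by themselves with no MG132 co-treatment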

Structure (SMILES)	activation
CCc1nc2c(n1)c1c(non1O)c1c2no[n+]1[O-]	inactive: -100%
